US10973920B2, “Saccharide derivative of a toxic payload and antibody conjugates thereof” (priority 2014, dated 2021)

System: cancer cells (SKOV-3 and HSC-2)
Test: Cytotoxicity to cancer cells, PrestoBlue cell viability, 96 h
Conditions: concentrations up to 100 nM
Description: Human ovarian cancer cell line SKOV-3 (ATCC, Manassas, Va., USA) and head-and-neck squamous cell carcinoma cell line HSC-2 (Japanese Collection of Research Bioresources, Osaka, Japan) were grown according to the suppliers' recommendations. Log phase cultures were collected and cells were seeded onto 96-well plates and incubated for 24 h. Serial dilutions of test molecules were added to cells and cultures were incubated further for 96 h. Cell viability was evaluated using PrestoBlue cell viability reagent (Life Technologies, Carlsbad, Calif., USA) according to the manufacturer's instructions. Cells were incubated for 2 h, and dye reduction was measured by absorbance at 570 nm. The compounds were assayed 1-2 times in triplicate.
The results are expressed in Table 1 as IC50 values.

Cet-MMAG: cetuximab-VC-PAB-MMAG antibody-drug conjugate with drug-to-antibody ratio of 1:1
Cytotoxicity (in words): increased cytotoxicity compared to MMAE
